What all share (type): biochemical
Test [1] concerns the target T1, PHD2 (Homo sapiens, UniProt Q9GZT9). Nature of the test: MALDI-TOF MS PHD hydroxylation assay. The method, then: Protocols for in vitro PHD1–3 MALDI-TOF MS hydroxylation assays[30] and for the AlphaScreen histone demethylase assays[44] were as reported.
Although sharing homologous C-terminal catalytic domains, the N-terminal regions of PHD1–3 vary. […] In vitro inhibition assays of the clinical trial PHD inhibitors (and some of their structurally related analogue) against 1 μM recombinant human PHD1–3 were performed.
Fig. S11. In vitro PHD isoform selectivity profiling of PHD inhibitors. Inhibition of PHD inhibitors against human PHD125 -3 as assayed by MALDI-TOF MS (the protocol is described in Chan et al. ). Eight concentrations were used to obtained dose-response curve for each compound. Data points presented in the graph are mean with standard deviation, n=3. IC50 […]
(1 picture or pasted object on this page, not shown here)

Amino acid sequences for entries named in this document (tags omitted). Residues count along the entry.
UniProt Q9GZT9, 181-426: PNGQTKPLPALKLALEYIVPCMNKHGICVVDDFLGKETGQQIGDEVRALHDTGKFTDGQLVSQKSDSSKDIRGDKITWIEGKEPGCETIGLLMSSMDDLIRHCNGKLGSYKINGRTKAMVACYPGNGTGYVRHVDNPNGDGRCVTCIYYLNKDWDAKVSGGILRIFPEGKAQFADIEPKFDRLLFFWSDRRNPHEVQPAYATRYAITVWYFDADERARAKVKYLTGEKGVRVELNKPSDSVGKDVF

Test [2] deals with T1, PHD2. In words: LC-MS based RapidFire PHD2 hydroxylation assay.
For test [3], the target named is PHD2 catalytic domain (residues 181-426) (Homo sapiens, UniProt Q9GZT9). Nature of the test: AlphaScreen antibody based PHD2 assay (HIF-1α CODD peptide hydroxylation). The arrangement: 10 nM PHD2 (catalytic domain, residues 181–426); made in house. The method, then: AlphaScreen antibody based PHD assays were as reported[39] using 384-well white ProxiPlates™ (PerkinElmer). Reactions were performed in 50 mM HEPES buffer pH 7.5, 0.01% Tween-20 and 0.1% BSA in a final volume of 10 μL at room temperature. […] The luminescence signal was measured using an Envision (Perkin Elmer) plate reader. Data were analyzed utilizing GraphPad prism.
In general terms: Bead proximity is the source of the signal in Alpha formats.

Each structure is given as a SMILES string.

A word on the IC50: it is the point on the concentration scale where inhibition reaches its midpoint. In the case of `O=C(O)CNC(=O)c1ncc(-c2cccc(Cl)c2)cc1O` [Vadadustat], the half-inhibitory concentration (IC50) at PHD2 [1] was found to be 2300 nM; at PHD2 [2], 1330 nM; in test [3], 29 nM.

These data come from PMC5802278, “Molecular and cellular mechanisms of HIF prolyl hydroxylase inhibitors in clinical trials” (Chemical Science, 2017).
